This note sets out measurements from PMC6646333 (Nature Communications, 2019).

The conditions of this data set: statement in the reply to reviewer 1, no method given.

With Leu10-teixobactin, the “Solubility compared with teixobactin” value was “worse than teixobactin”.
